In ChEMBL document CHEMBL1156083, “N,N-Diethyl-4-[(3-hydroxyphenyl)(piperidin-4-yl)amino] benzamide derivatives: the development of diaryl amino piperidines as potent delta opioid receptor agonists with in vivo anti-nociceptive activity in rodent models” (Bioorg Med Chem Lett, 2009):

How the values were obtained:
[1] = biological target: Mu-type opioid receptor (Homo sapiens, UniProt P35372); assay: Displacement of [125I]FK33824 from human cloned mu opioid receptor
[2] = biological target: Kappa-type opioid receptor (Homo sapiens, UniProt P41145); assay: Displacement of [125I]D-pro10-dynorphin from human cloned kappa opioid receptor

Compound | Ki [1] | Ki [2]
C=CCCN1CCC(N(c2ccc(C(=O)N(CC)CC)cc2)c2cccc(O)c2)CC1 | 130 nM | 98 nM
CCN(CC)C(=O)c1ccc(N(c2cccc(OC)c2)C2CCN(CCc3cccs3)CC2)cc1 | 1960 nM | 6400 nM
CCN(CC)C(=O)c1ccc(N(c2cccc(O)c2)C2CCN(CCC3CCCCC3)CC2)cc1 | 289 nM | 726 nM
CCN(CC)C(=O)c1ccc(N(c2cccc(O)c2)C2CCN(CCc3ccoc3)CC2)cc1 | 177 nM | 121 nM
CCN(CC)C(=O)c1ccc(N(c2cccc(O)c2)C2CCN(CC(C)c3ccccc3)CC2)cc1 (stereo not given) | 648 nM | 2190 nM
CCN(CC)C(=O)c1ccc(N(c2cccc(O)c2)C2CCN(CCc3nccn3C)CC2)cc1 | 772 nM | 4600 nM
CCN(CC)C(=O)c1ccc(N(c2cccc(O)c2)C2CCN(CCC3CC3)CC2)cc1 | 126 nM | 508 nM
CCN(CC)C(=O)c1ccc(N(c2cccc(O)c2)C2CCN(CCc3ccsc3)CC2)cc1 | 127 nM | 495 nM
CCN(CC)C(=O)c1ccc(N(c2cccc(OC)c2)C2CCN(CCc3ncc[nH]3)CC2)cc1 | 4440 nM | > 10000 nM
CCN(CC)C(=O)c1ccc(N(c2cccc(OC)c2)C2CCN(CCc3ccccc3)CC2)cc1 | 2110 nM | 3610 nM
CCN(CC)C(=O)c1ccc(N(c2cccc(OC)c2)C2CCN(CCc3ccoc3)CC2)cc1 | 1300 nM | 4990 nM
CCN(CC)C(=O)c1ccc(N(c2cccc(O)c2)C2CCN(CCc3ncc[nH]3)CC2)cc1 | 1250 nM | 1190 nM
CCN(CC)C(=O)c1ccc(N(c2cccc(O)c2)C2CCN(CCc3cnc[nH]3)CC2)cc1 | 309 nM | 1450 nM
CCN(CC)C(=O)c1ccc(N(c2cccc(O)c2)C2CCN(CCc3cccs3)CC2)cc1 | 181 nM | 453 nM
CCN(CC)C(=O)c1ccc(N(c2cccc(O)c2)C2CCN(CCc3ccncc3)CC2)cc1 | 1550 nM | 4570 nM
CCN(CC)C(=O)c1ccc(N(c2cccc(O)c2)C2CCN(CCc3cccc(F)c3)CC2)cc1 | 472 nM | 1360 nM
CCN(CC)C(=O)c1ccc(N(c2cccc(O)c2)C2CCN(CCc3ccccn3)CC2)cc1 | 205 nM | 2040 nM
CCN(CC)C(=O)c1ccc(N(c2cccc(O)c2)C2CCN(CCc3ccccc3F)CC2)cc1 | 162 nM | 967 nM
CCN(CC)C(=O)c1ccc(N(c2cccc(OC)c2)C2CCN(CCc3ccco3)CC2)cc1 | 2530 nM | 7080 nM
CCN(CC)C(=O)c1ccc(N(c2cccc(O)c2)C2CCN(CCc3ccco3)CC2)cc1 | 115 nM | 263 nM
